# Measured values reported in patent US20260382635A1, “NITROSYL-HEME FORMULATIONS FOR THE TREATMENT OF CARDIOVASCULAR CONDITIONS, HEMOLYSIS, AND THE STABILIZATION OF CELL-FREE HEME MOLECULES” (published 2026).
# Columns and labels:
# [1] = Kinetics of reductive nitrosylation of ferric heme in MeOH:PBS buffer (UV-Vis/stopped-flow)
# Protocol: All individual spectra and pseudo-first-order kinetics were performed using a thermostatted (23/37 °C±0.2) Cary 50, Cary 100, or HP8453 UV-Visible spectrophotometer (Agilent Technologies) running either Cary WinUV Scan (v 5.23.1042, Agilent Technologies), Cary WinUV Scanning Kinetics (v3.00(183), Agilent Technologies), or UV-Visible ChemStation (vB.04.01 [61], Agilent Technologies) for reactions ferric heme reactions with NO and without glutathione in PBS and MeOH/PBS buffer (1 part PBS in 5 parts methanol) unless otherwise noted. For pseudo-first-order reactions with fast observed rates such as the ferric heme reaction with NO and reduced glutathione, a thermostatted SX-20 stopped-flow instrumented fitted with a direct mount photodiode array (Applied Photophysics, Ltd.) in an anaerobic chamber was used. Stopped-flow data were collected using Pro-Data SX (v2.5.1852.0, Applied Photophysics). Samples were prepared either in a glove box under nitrogen atmosphere or using a Schlenk line under argon atmosphere with oxygen-free buffers and solvents.
# Hemin stock (5 mM) was prepared regularly in 20 mN anaerobic NaOH solution, sealed in a septum capped vial. The concentration of hemin was precisely determined by absorption spectroscopy using the extinction coefficient at 385 nm of 58.4 mM^−1 cm^−1.^78 Reduced glutathione stocks (25-100 mM) were made regularly in deaerated PBS and sealed in septum capped vials. Methanol was deaerated separated before mixing in a 5:1 ratio with deaerated PBS to make MeOH:PBS buffer for spectroscopy experiments. The precise concentration of NO from bubbling or from ProliNONOate was determined either by titrating with excess oxyhemoglobin and calculating the amount of methemoglobin produced by fitting absorption spectra to normalized basis spectra or using an ozone-based chemiluminescent analyzer. Stock concentrations of ProliNONOate were also verified through absorption spectroscopy, using the extinction coefficient at 248 nm of 8.4 mM^−1 cm^−1.^79 A sample stopped-flow experiment was performed as follows: 25 μM hemin and 250 µM hemin were loaded into one syringe, and a range of NO concentrations between 125 μM and 2.5 mM were loaded in the other syringe and the syringe contents were mixed 1:1 in the stoppled flow. For radical trapping experiments, the above reaction conditions were replicated plus the addition of 50 mM DMPO in deaerated MeOH:PBS solution.
# A 5:1 mixture of methanol to phosphate buffered saline (PBS, pH 7.4)—herein referred to as the MeOH:PBS buffer—was used to solubilize free heme at concentrations amenable to UV-visible spectroscopic characterization. […]
# Addition of 125 μM GSH with 12.5 μM ferric heme and only 125 μM NO results in rapid formation a product with the same spectroscopic signature, indicating NO-ferroheme formation (FIG. 1B, note markedly different time scale from FIG. 1A). […] The GSH-facilitated product lacks the characteristic dithionite absorbance at 315 nm.
# Varying the concentrations of NO or GSH under pseudo first-order conditions allows for determination of the reaction dependence on GSH and NO, yielding calculated second-order rate constants of 7000 M^−1s^−1 and 2300 M^−1s^−1, respectively (FIG. 1F).
# [2] = tested on: platelets; assay: Platelet activation in platelet-rich plasma (flow cytometry)
# Protocol: Samples were prepared using heme (25 μM), NO (20 μM), albumin (75 μM) with and without GSH (250 μM) under normoxic or anoxic conditions. Fresh blood was drawn into sodium citrate tubes with the first tube being discarded and platelet rich plasma (PRP) collected after sedimentation of the red blood cells. Platelet activation was measured as described previously.^82 First, PRP was diluted 1:7 with oxygenated or deoxygenated PBS buffer, then albumin samples were mixed with this diluted PRP in 1:10 ratio. After 5 minutes of incubation at 37 °C, 2 μM ADP was added to all test samples except negative vehicle controls, followed by 10 additional minutes incubation. 20 μL of each sample was subsequently added to PAC-1 FITC (BD™ FITC Mouse Anti-Human PAC-1, 25 μg/mL (1 mL); catalog no. 340507; clone PAC-1 RUO (GMP))—which labels activated platelets—and CD61 (BD™ PerCP Mouse Anti-Human CD61, 3 g/mL (1 mL); catalog no. 340506; clone RUU-PL7F12 RUO (GMP))—which labels all platelets- and incubated at room temperature in the dark for 20 minutes and then fixed in 1% buffered formaldehyde. Platelets were sorted using a BD FACSCalibur Analyzer. Data were collected and analyzed using BD CellQuest Pro (v6.0). Gating strategy was based on side and forward scattering compared to red blood cells and then also for activated platelets. Platelets were labelled along the x-axis and activation on the y-axis. Activation was taken as the upper right quadrant divided by the sum of the two right quadrants (FIG. 14).
# GSNO can inhibit platelets in vitro.^59,60 As GSNO is generated by the reaction, an alternate method to was employed to generate NO-ferroheme without GSNO by first reducing hemin with 1.6 fold excess sodium dithionite and then adding an equivalent of NO to the pre-formed ferrous heme at a final concentration of 2 μM (FIG. 4B). […] Finally, to establish that sGC is activated with NO-ferroheme in platelets, cGMP was detected with and without ODQ, a sGC inhibitor, and tadalafil, a phosphodiesterase (PDE) inhibitor (FIG. 4C). cGMP is increased with NO-ferroheme treatment vs controls (FIG. 4C, solid hexagons, p=0.0177), consistent with sGC activation and cGMP-dependent signaling.
SMILES,"observed 2nd-order rate constant (NO dependence) ([1]; role: substrate, NO varied, [GSH] 250 μM, ferric heme, MeOH:PBS, 23 °C, anaerobic) [M⁻¹ s⁻¹]","platelet activation, effect in words ([2]; NO alone 2 μM, 2 μM ADP)","t1/2 of NO-ferroheme formation ([1]; role: product, 1250 μM NO, 12.5 μM ferric heme, no GSH, anaerobic, 23 °C) [min]","increase in kobs of NO-ferroheme formation on addition of a reduced thiol ([1]; role: product, tenfold less NO, otherwise analogous conditions)","platelet activation, effect in words ([2]; ferrous heme in the absence of NO, 2 μM ADP (FIG. 4B))","platelet inhibition, thiol-catalyzed vs dithionite-generated NO-ferroheme ([2]; thiol-catalyzed vs dithionite-generated without glutathione)"
[N]=O,2300,inhibited platelet activation,,,,
C=CC1=C(C)c2cc3[nH]c(cc4nc(cc5[nH]c(cc1n2)c(C)c5CCC(=O)O)C(CCC(=O)O)=C4C)c(C)c3C=C.[Fe+2],,,5.67,more than 500 fold,"did not inhibit platelet activation; in fact, this species slightly augmented activation",equally effective inhibitors
